Results from article PMC5681660, “Reduced hepatitis B and D viral entry using clinically applied drugs as novel inhibitors of the bile acid transporter NTCP” (Scientific Reports, 2017).
Counter-ions that a name gives are not always drawn.

Target: T1, human NTCP (Homo sapiens, UniProt Q14973)
T1 sequence (Q14973 1-349): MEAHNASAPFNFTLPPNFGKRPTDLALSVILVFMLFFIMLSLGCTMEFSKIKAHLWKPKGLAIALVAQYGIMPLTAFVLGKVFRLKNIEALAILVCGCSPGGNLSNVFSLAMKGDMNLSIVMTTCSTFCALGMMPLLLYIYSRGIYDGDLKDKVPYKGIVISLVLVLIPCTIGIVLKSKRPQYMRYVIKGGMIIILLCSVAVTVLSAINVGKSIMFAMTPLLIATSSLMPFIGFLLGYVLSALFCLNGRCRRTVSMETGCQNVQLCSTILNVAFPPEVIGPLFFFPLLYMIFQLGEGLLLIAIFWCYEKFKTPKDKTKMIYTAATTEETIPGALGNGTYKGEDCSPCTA
Assay: Screening fluorescent competitive Myrcludex B-FITC binding assay (96-well, 10 µM drug)
Settings: for B-score binding assay / %NTCP binding: screening Myrcludex B-FITC binding, 10 µM drug; for remaining activity at 10 µM: 0.5 h, read-out: %NTCP binding, screening Myrcludex B-FITC binding, 10 µM drug, Prestwick library; for %NTCP binding: Prestwick library

| Compound | B-score binding assay | further results |
| --- | --- | --- |
| CC(=O)O[C@]1(C(C)=O)CC[C@H]2[C@@H]3C=C(Cl)C4=CC(=O)CC[C@]4(C)[C@H]3CC[C@@]21C [Chlormadinone acetate] | -2.961 |  |
| COc1cc(C(=O)NS(=O)(=O)c2ccccc2C)ccc1Cc1cn(C)c2ccc(NC(=O)OC3CCCC3)cc12 [Zafirlukast] | -15.088 |  |
| CO[C@@]1(NC(=O)CSCC#N)C(=O)N2C(C(=O)O)=C(CSc3nnnn3C)CS[C@@H]21 [Cefmetazole sodium salt] | -0.699 |  |
| CC[N+](CC)(CC)CCOc1cccc(OCC[N+](CC)(CC)CC)c1OCC[N+](CC)(CC)CC [Gallamine triethiodide] | -0.932 |  |
| CC(C)(C)C(=O)OCOC(=O)[C@@H]1N2C(=O)[C@@H](NC(=O)[C@H](N)c3ccccc3)[C@H]2SC1(C)C [Pivampicillin] | -3.501 |  |
| C=C1C(=O)O[C@H]2[C@H]1CC/C(C)=C/CC[C@@]1(C)O[C@@H]21 [Parthenolide] | -0.753 |  |
| Nc1ccc(/N=N/c2ccccc2)c(N)n1 [Phenazopyridine hydrochloride] | -2.29 |  |
| O=C1CCc2ccc(OCCCCN3CCN(c4cccc(Cl)c4Cl)CC3)cc2N1 [Aripiprazole] | -0.69 |  |
| CN1CCCN=C1/C=C/c1cccc(O)c1.O=C(O)c1cc2ccccc2c(Cc2c(O)c(C(=O)O)cc3ccccc23)c1O [Oxantel pamoate] | 0.435 |  |
| CC(=O)O[C@H]1C[C@H](O[C@H]2[C@@H](O)C[C@H](O[C@H]3[C@@H](O)C[C@H](O[C@H]4CC[C@@]5(C)[C@H](CC[C@@H]6[C@@H]5C[C@@H](O)[C@]5(C)[C@@H](C7=CC(=O)OC7)CC[C@]65O)C4)O[C@@H]3C)O[C@@H]2C)O[C@H](C)[C@H]1O[C@@H]1O[C@H](CO)[C@@H](O)[C@H](O)[C@H]1O [Lanatoside C] | 0.543 | remaining activity at 10 µM: 89.7% |
| CCC1(CC)C(=O)C=CNC1=O [Pyrithyldione] | -0.586 | remaining activity at 10 µM: 93.3% |
| CN1CCN(C(c2ccccc2)c2ccccc2)CC1.Cl [Cyclizine hydrochloride] | 23.152 | %NTCP binding: 101.293% |
| CC(=O)Oc1cccc2c1C(=O)c1c(OC(C)=O)cc(C(=O)O)cc1C2=O [Diacerein] | 2.04 |  |
| CN(C)CCN1C(=O)c2ccccc2N(C)c2ccccc21.Cl [Dibenzepine hydrochloride] | 0.211 | %NTCP binding: 84.8755% |
| CN(C)CCC(c1ccc(Br)cc1)c1ccccn1 (stereo not shown) [Brompheniramine maleate] | 0.237 |  |
| CCNCC(O)c1cccc(O)c1 (stereo not shown) [Etilefrine hydrochloride] | -0.371 |  |
| C=C1c2c(Cl)ccc(O)c2C(=O)C2=C(O)[C@]3(O)C(=O)C(C(N)=O)=C(O)[C@@H](N(C)C)[C@@H]3[C@@H](O)[C@H]12.O=C(O)c1cc(S(=O)(=O)O)ccc1O [Meclocycline sulfosalicylate] | -0.262 | %NTCP binding: 53.9082% |
| OC(CCN1CCCC1)(c1ccccc1)C1CCCCC1 (stereo not shown) [Procyclidine hydrochloride] | 0.82 |  |
| NC(=O)OCC(COC(N)=O)c1ccccc1 [Felbamate] | -0.478 |  |
| CCCOc1cc(N)ccc1C(=O)OCCN(CC)CC [Propoxycaine hydrochloride] | -2.752 |  |
| CCN1CCC[C@H]1CNC(=O)c1c(OC)ccc(Br)c1OC.Cl [Remoxipride Hydrochloride] | -0.332 | %NTCP binding: 104.815% |

| Compound | B-score binding assay | further results |
| --- | --- | --- |
| CC1(C)S[C@@H]2[C@H](NC(=O)[C@H](N)c3ccc(O)cc3)C(=O)N2[C@H]1C(=O)O [Amoxicillin] | -1.605 |  |
| COc1ccc(CCN2CCC(Nc3nc4ccccc4n3Cc3ccc(F)cc3)CC2)cc1 [Astemizole] | -2.201 |  |
| CC(C)(C(=O)O)c1ccc(C(O)CCCN2CCC(C(O)(c3ccccc3)c3ccccc3)CC2)cc1 (stereo not shown) [Fexofenadine HCl] | -0.157 |  |
| CCN1CCN(C(=O)N[C@@H](C(=O)N[C@@H]2C(=O)N3[C@@H]2SC(C)(C)[C@@H]3C(=O)O)c2ccccc2)C(=O)C1=O [Piperacillin sodium salt] | -0.015 |  |
| NC(=O)OCCCc1ccccc1 [Phenprobamate] | -0.482 | remaining activity at 10 µM: 53.8% |
| CC(=O)[N-]S(=O)(=O)c1ccc(N)cc1.O.[Na+] [Sulfacetamide sodic hydrate] | -1.286 |  |
| CC(=O)OCC(=O)[C@@]12OC3(CCCC3)O[C@@H]1C[C@H]1[C@@H]3CCC4=CC(=O)C=C[C@]4(C)[C@@]3(F)[C@@H](O)C[C@@]12C [Amcinonide] | -0.672 |  |
| COc1cc(C(=O)NCc2ccc(OCCN(C)C)cc2)cc(OC)c1OC [Trimethobenzamide hydrochloride] |  | B-score binding assay (B-score): 2.919 |
| CC(=O)O[C@@]12CO[C@@H]1C[C@H](O)[C@@]1(C)C(=O)[C@H](O)C3=C(C)[C@@H](OC(=O)[C@H](O)[C@@H](NC(=O)OC(C)(C)C)c4ccccc4)C[C@@](O)([C@@H](OC(=O)c4ccccc4)[C@H]21)C3(C)C [Docetaxel] | -0.007 |  |
| N=C(N)c1ccc(OCCCCCOc2ccc(C(=N)N)cc2)cc1 [Pentamidine isethionate] | -0.163 |  |
| Cc1ccc(S(=O)(=O)NC(=O)NN2CC3CCCC3C2)cc1 (stereo not shown) [Gliclazide] | -1.775 |  |
| CCC(=O)O[C@]1(C(=O)CCl)[C@@H](C)C[C@H]2[C@@H]3CCC4=CC(=O)C=C[C@]4(C)[C@@]3(F)[C@@H](O)C[C@@]21C [Clobetasol propionate] | -0.984 |  |
| CCOC(=O)O[C@]1(C(=O)COC(=O)CC)CC[C@H]2[C@@H]3CCC4=CC(=O)C=C[C@]4(C)[C@H]3[C@@H](O)C[C@@]21C [Prednicarbate] | -2.046 |  |
| CN1CCN(c2c(F)cc3c(=O)c(C(=O)O)cn4c3c2SCC4)CC1 [Rufloxacin] | -0.201 |  |
| CC(=O)CCCCn1c(=O)c2c(ncn2C)n(C)c1=O [Pentoxifylline] | -0.069 |  |
| O=C(CCCCCCC(=O)Nc1ccccc1)NO [Vorinostat] | 0.124 |  |
| C=CC1=C(C(=O)O)N2C(=O)[C@@H](NC(=O)/C(=N\OCC(=O)O)c3csc(N)n3)[C@H]2SC1 [Cefixime] | -0.722 |  |
| CCN(CC)CCNc1ccc(CO)c2sc3ccccc3c(=O)c12 [Hycanthone] | -0.124 |  |
| CN1CC2c3ccccc3Oc3ccc(Cl)cc3C2C1 (stereo not shown) [Asenapine maleate] | -3.064 |  |
| CCCc1ncc(C[n+]2ccccc2C)c(N)n1 [Amprolium hydrochloride] | -1.746 |  |
| CC(C)(C)NCC(O)c1cc(Cl)c(N)c(Cl)c1 (stereo not shown) [Clenbuterol hydrochloride] | 0.16 | remaining activity at 10 µM: 73.8% |

| Compound | B-score binding assay | further results |
| --- | --- | --- |
| CSc1ccc2c(c1)N(CCC1CCCCN1C)c1ccccc1S2 (stereo not shown) [Thioridazine hydrochloride] | -2.64 |  |
| Cl.Cl.OCCN1CCN(CC/C=C2/c3ccccc3Sc3ccc(Cl)cc32)CC1 [Zuclopenthixol dihydrochloride] | -1.746 |  |
| NC(N)=NCc1cccc(I)c1.NC(N)=NCc1cccc(I)c1.O=S(=O)(O)O [Iobenguane sulfate] |  | %NTCP binding: 106.865%; B-score binding assay (B-score): 23.906 |
| CCc1cccc2c3c([nH]c12)C(CC)(CC(=O)O)OCC3 (stereo not shown) [Etodolac] | -3.951 |  |
| CCCCC[C@H](O)/C=C/[C@@H]1[C@@H](C/C=C\CCCC(=O)O)[C@@H](O)C[C@H]1O [Dinoprost trometamol] | -0.373 |  |
| CC(C)(O/N=C(\C(=O)N[C@@H]1C(=O)N2C(C(=O)[O-])=C(C[n+]3ccccc3)CS[C@H]12)c1csc(N)n1)C(=O)O [Ceftazidime pentahydrate] | 3.035 |  |
| C[C@@H](O)[C@H]1C(=O)N2C(C(=O)O)=C(SCCN=CN)C[C@H]12 [Imipenem] |  | B-score binding assay (B-score): 1.375 |
| CC(=O)OCC(CCn1cnc2cnc(N)nc21)COC(C)=O [Famciclovir] | -0.314 |  |
| CC(=O)OC1CN2CCC1CC2 (stereo not shown) [Aceclidine Hydrochloride] | -1.034 |  |
| COC(c1ccccc1)(c1ccccc1)[C@H](Oc1nc(C)cc(C)n1)C(=O)O [Ambrisentan] | 0.65 |  |
| C[C@H](N)[C@H](O)c1cccc(O)c1 [Metaraminol bitartrate] | -4.813 |  |
| CO[C@H]1/C=C/O[C@@]2(C)Oc3c(C)c(O)c4c(O)c(c5c(nc6cc(C)ccn65)c4c3C2=O)NC(=O)/C(C)=C\C=C\[C@H](C)[C@H](O)[C@@H](C)[C@@H](O)[C@@H](C)[C@H](OC(C)=O)[C@@H]1C [Rifaximin] | 0.696 |  |
| COc1ccccc1OCC(O)CN1CCN(CC(=O)Nc2c(C)cccc2C)CC1 (stereo not shown) [Ranolazine] | -0.712 |  |
| CCCCOc1ccc(C(=O)CCN2CCCCC2)cc1 [Dyclonine hydrochloride] | -0.002 |  |
| CC(C)(C)NCC(O)COc1cccc2c1CCC(=O)N2 (stereo not shown) [Carteolol hydrochloride] | 0.356 |  |
| CC1(C)O[C@@H]2C[C@H]3[C@@H]4CCC5=CC(=O)CC[C@]5(C)[C@@]4(F)[C@@H](O)C[C@]3(C)[C@]2(C(=O)CCl)O1 [Halcinonide] | -0.333 |  |
| CC(C)(C)NCC(O)c1ccccc1Cl (stereo not shown) [Tulobuterol] |  | B-score binding assay (B-score): 1.917 |
| CS(=O)(=O)c1ccc([C@@H](O)[C@@H](CO)NC(=O)C(Cl)Cl)cc1 [Thiamphenicol] | -0.102 |  |
| CCOC(=O)c1ccc(OC(=O)CCCCCN=C(N)N)cc1.CS(=O)(=O)O [Gabexate mesilate] | -2.773 |  |
